Here are results for one substance from patent US9238626B2 (priority 2012, dated 2016).

Amino acid sequences for entries named in this document (tags omitted). Residues count along the entry.
UniProt P22303, 32-614: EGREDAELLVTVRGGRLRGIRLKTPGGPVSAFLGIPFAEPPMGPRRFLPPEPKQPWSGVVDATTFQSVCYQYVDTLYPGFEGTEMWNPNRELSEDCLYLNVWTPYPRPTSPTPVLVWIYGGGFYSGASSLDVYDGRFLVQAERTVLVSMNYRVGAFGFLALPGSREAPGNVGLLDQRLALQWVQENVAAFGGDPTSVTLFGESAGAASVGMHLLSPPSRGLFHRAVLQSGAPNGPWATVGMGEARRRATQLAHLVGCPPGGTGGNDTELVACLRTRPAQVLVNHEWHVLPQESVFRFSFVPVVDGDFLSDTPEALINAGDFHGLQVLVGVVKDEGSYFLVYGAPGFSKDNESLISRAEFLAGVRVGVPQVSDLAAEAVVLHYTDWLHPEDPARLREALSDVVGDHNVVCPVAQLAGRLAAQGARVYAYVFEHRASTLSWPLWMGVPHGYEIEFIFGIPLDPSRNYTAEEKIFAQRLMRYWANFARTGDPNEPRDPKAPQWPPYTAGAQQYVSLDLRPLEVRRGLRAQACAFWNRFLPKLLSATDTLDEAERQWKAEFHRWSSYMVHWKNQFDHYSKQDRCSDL
UniProt P06276, 29-602: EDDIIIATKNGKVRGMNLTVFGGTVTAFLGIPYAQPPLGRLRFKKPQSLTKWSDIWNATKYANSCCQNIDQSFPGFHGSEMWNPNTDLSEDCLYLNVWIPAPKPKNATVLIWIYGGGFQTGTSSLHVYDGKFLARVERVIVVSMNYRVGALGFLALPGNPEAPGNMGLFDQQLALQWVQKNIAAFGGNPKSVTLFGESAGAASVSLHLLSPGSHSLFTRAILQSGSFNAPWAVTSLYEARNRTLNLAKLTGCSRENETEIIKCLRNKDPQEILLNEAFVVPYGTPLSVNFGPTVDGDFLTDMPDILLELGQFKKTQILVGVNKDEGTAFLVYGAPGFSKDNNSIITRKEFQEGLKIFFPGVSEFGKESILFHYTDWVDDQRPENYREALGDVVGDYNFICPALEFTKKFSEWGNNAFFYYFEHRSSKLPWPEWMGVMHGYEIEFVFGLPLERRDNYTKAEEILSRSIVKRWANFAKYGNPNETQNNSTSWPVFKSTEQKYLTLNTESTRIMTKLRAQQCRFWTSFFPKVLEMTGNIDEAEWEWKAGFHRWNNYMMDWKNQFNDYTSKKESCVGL

The target of assay [1] is recombinant human AChE (hAChE) (Homo sapiens (Human), UniProt P22303). Particulars: read-out: IC50 hAChE. From the text:
The results were plotted by placing the percentage of inhibition in function of the decimal log of the final inhibitor concentration.

For a further assay, the target named is human serum BChE (Homo sapiens (Human), UniProt P06276). The assay is described as follows: BChE inhibition assay (Ellman). In kind it is biochemical. Particulars: read-out: IC50 hBChE. How it is done: BChE inhibitory activity determinations were carried out similarly by the method of Ellman et al., using 0.02 unit/mL of human serum BChE and 300 μM butyrylthiocholine, instead of AChE and acetylthiocholine, in a final volume of 300 μL.
Results are expressed as mean±S.E.M. of at least 4 experiments performed in duplicate. DTNB, acetylthiocholine, butyrylthiocholine, and enzymes were purchased from Sigma.
On the technique in general: In Ellman's method for cholinesterases, released thiocholine reacts with DTNB.

Turning to “huprine Y [(±)-Huprine Y•HCl, reference compound]”, the IC50 (usually the concentration at which inhibition is half-maximal) was 0.69 ± 0.03 nM in assay [1] and 181 ± 15 nM at human serum BChE.
